Screens deposited in PubChem BioAssay by several laboratories.
Sampled rows, rich in hits. Any-hit rate of the full collection: about 0.94%.
PKA-R1A activ – activates the PKA-R1A holoenzyme complex | P00514+P68181 | PKA-R1A dissociation, Cy5-IP20 fluorescence polarization; scaled: DMSO 0%, 113 µM cGMP 100% | activation, % at 11.4 µM | 340,000 compounds, 0.083% hits;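 active means percent activation above the mean of all tested compounds plus 3 SD, cut at about 19% in these data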;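 further: higher means more PKAc released from R1A so a rise in polarization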
Granule exo inh – lytic granule exocytosis inhibition; inhibition, % at 10 µM; TALL-104 LAMP-1 surface exposure, flow cytometry; cells stimulated with thapsigargin and PMA; 360,000 compounds, 0.66% hits;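 active means inhibition above about 55%, limit read from the data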
p-CIP stab down – lowers stability of the mouse p/CIP coactivator protein; AID 1984; decrease of EGFP signal, % at 10 µM; F442A p/CIP-EGFP cells, EGFP fluorescence, 16 h; 290,000 compounds, 0.01% hits;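 active means EGFP signal decrease of at least 30% at 10 µM or well 3 SD below plate mean, unless failing retest; inactive means the rest, including hits failing retest or dose response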
ABCB6 inh MLPCN – inhibitors of human ABC transporter ABCB6 | Q9NP58 | K562-ABCB6 porphyrin accumulation, flow cytometry, 1 h; hits give low values | fluorescence ratio to DMSO, % at 10 µM | 360,000 compounds, 0.19% hits | AID 602162;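 active means fluorescence ratio to DMSO below 75%, the collection mean minus 3 SD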;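 further: signal is porphyrin accumulated inside mitochondria; 100% equals median channel fluorescence of DMSO control wells; lower ratio means ABCB6 inhibition with less porphyrin fluorescence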
PKA-R2B activ – activates the human PKA-R2B holoenzyme complex. PKA-R2B holoenzyme dissociation, Cy5-IP20 fluorescence polarization; R2B truncated from residue 108, S112A mutant; 0% DMSO only, 100% 113 µM cGMP. activation, % at 11.4 µM. 340,000 compounds, 0.079% hits. AID 504700;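 active means activation above a cutoff set at the mean over all compounds plus 3 SD, cut at about 18% in these data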;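 further: higher means more holoenzyme dissociation and a rise in polarization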
UUG fidelity – alters start codon recognition fidelity in yeast. S. cerevisiae UUG-firefly luciferase reporter, luminescence/redox ratio. AID 602363. activity score, % at 18.7 µM. hit rate 0.13% among 350,000;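 active = replicate mean at a twofold rise or more, about +100% in these data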;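 note: firefly luciferase made from a UUG start codon reports start codon fidelity; reporter light over untreated wells divided by growth signal over untreated wells; some hits fall short of that in this replicate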
An asterisk follows results filed as active; i = inactive; nt = no result given.

SMILES	PKA-R1A activ	Granule exo inh	p-CIP stab down	ABCB6 inh MLPCN	PKA-R2B activ	UUG fidelity
COC(=O)c1cn(NC(=O)c2cccc(N(C)C)c2)c(=O)c2ccccc12	2.4	-3.1	-6.7	72.0*	-6.2	11.9
N#Cc1c(N(CCO)CCO)nc(N)c2c(N)nc3c(c12)CC(=O)N3CC1CCCO1 (stereo not drawn)	-2.5	-1.9	-7.8	94.0	-9.1	nt
CCCCN1C(=O)Cc2c1nc(N)c1c(N)nc(N(CCC)CCC)c(C#N)c21	6.3	71.6*	-12.6	92.0	-2.5	-4.5
O=C1C2C3C=CC(O3)C2C(=O)N1CC(O)c1ccccc1 (stereo not drawn)	-15.4	63.1*	-4.6	100.0	-7.5	-21.9
O=C(CCc1ccccc1)NN1C(=O)C2C3C=CC(O3)C2C1=O (stereo not drawn)	2.2	0.8	14.3	92.0	-11.3	nt
C=CCN1C(=O)[C@@]2(O[C@@H](CCn3cc([C@H](O)c4ccccc4)nn3)[C@H]([Si](C)(C)c3ccc(OC)cc3)[C@H]2C)c2cc(N3C(=O)c4cccc5cccc3c45)ccc21	nt	nt	nt	nt	nt	-19.9
C/C(=N\Nc1ncc(Cl)cc1Cl)c1ccccn1	11.4	98.4*	-1.5	128.0	-4.2	nt
Cc1cccc(/C=C2/Sc3ccc(C(=O)NCCCN4CCOCC4)cc3NC2=O)c1	-3.0	60.0*	11.2	94.0	-3.4	19.4
COc1ccc(NC(=O)C2CCN(S(=O)(=O)c3ccc(C)cc3)CC2)cc1OC	-1.5	-0.4	-7.3	74.0*	7.9	-22.3
Cc1cccc(C(=O)NN(C)c2nc(-c3ccccc3)nnc2C(F)(F)F)c1	-7.3	-2.4	-9.3	69.0*	-1.2	-16.5
COc1ccc(C(=O)NN(C)c2nc(-c3ccccc3)nnc2C(F)(F)F)cc1	2.3	-1.5	-13.2	100.0	-5.5	-13.9
CCNC(=O)C/C(C)=N/NC(=O)C1CCCCC1	-11.0	1.3	11.2	49.0*	-7.7	nt
C[n+]1c2n(c3ccccc31)N=C(c1cc(C(C)(C)C)c(O)c(C(C)(C)C)c1)CS2	2.5	57.6*	-13.4	87.0	4.5	nt
COc1cccc(C2=Nn3c(nnc3-c3ccccc3O)SC2)c1	-8.5	1.7	1.2	101.0	-5.8	-9.0
COc1ccc(S(=O)(=O)N2CCCCN3[C@@H](CO)[C@H](c4ccc(C#CCC(C)C)cc4)[C@@H]3C2)cc1	nt	nt	nt	nt	nt	12.8
Cc1cc(O)c(-c2cc(C(=O)NCc3ccc4c(c3)OCO4)[nH]n2)cc1C	-5.1	1.1	3.6	59.0*	-4.2	-13.8
Cc1[nH]nc(N=CC2=C(O)CC(c3ccco3)CC2=O)c1-c1ccc(Cl)cc1 (stereo not drawn)	-0.9	98.5*	4.5	99.0	-0.5	-13.1
COc1ccc([C@H]2[C@H](C(=O)OC(C)(C)C)N3N=Cc4ccccc4C3C23C(=O)c2ccccc2C3=O)cc1OC (stereo partly drawn)	1.4	63.4*	3.1	101.0	8.2	1.2
COc1ccc([C@H]2[C@H](C(=O)OC(C)(C)C)N3N=Cc4ccccc4C3C23C(=O)c2ccccc2C3=O)c(OC)c1 (stereo partly drawn)	-7.4	-0.3	5.7	108.0	4.5	10.5
O=[N+]([O-])c1ccc(Nc2nc(NC3CCCCC3)nc(N3CCCC3)n2)cc1	7.0	78.2*	-0.8	102.0	-3.8	nt
Clc1ccc(-c2nc(N3CCCCC3)nc3ccccc23)cc1	-1.0	-3.2	1.4	122.0	-6.1	-29.7
c1ccc(-c2nc(-n3nc4ccccc4n3)nc3ccccc23)cc1	-0.4	65.3*	-3.1	105.0	-13.4	nt
CCOC(=O)c1c(CSC(=N)N)n(-c2ccccc2)c2cc(Br)c(OC(C)=O)cc12	-7.7	80.6*	3.9	99.0	7.3	nt
Cc1cc(/C=C2\SC(=S)N(Cc3ccco3)C2=O)c(C)n1-c1ccccc1	-6.7	4.4	-21.5	149.0	-11.7	nt
CN(C)c1ccc(C=C2SC(=S)N(Cc3ccco3)C2=O)cc1	-5.0	104.6*	nt	i	-9.8	-1.8
COc1cc2c(cc1OC)C(=O)N1[C@H]3c4ccccc4OC[C@@H]3[C@H](c3ccccc3)[C@]1(C)C(=O)N2	-0.2	64.7*	nt	98.0	-0.4	-9.3
COc1ccc2c(c1)OC[C@H]1[C@H]2N2C(=O)c3cc(OC)c(OC)cc3NC(=O)[C@@]2(C)[C@H]1c1ccccc1	-12.0	-2.0	nt	93.0	-10.0	-2.2
O=C(C[C@@H]1C=C[C@@H](NS(=O)(=O)c2cccc(F)c2)[C@H](CO)O1)NCc1ccc2c(c1)OCO2	nt	nt	nt	nt	nt	-0.8
C[C@H](O)C#Cc1ccc2c(c1)O[C@@H](CN(C)Cc1ccccc1)[C@H](C)CN([C@H](C)CO)S2(=O)=O	nt	nt	nt	nt	nt	-4.1
O=C(NCc1ccc2c(c1)OCO2)c1nc(S(=O)(=O)Cc2ccccc2)ncc1Cl	-15.3	35.0	-17.0	53.0*	1.8	5.2
O=C(NCc1ccc2c(c1)OCO2)c1nc(S(=O)(=O)Cc2ccccc2F)ncc1Cl	-2.1	35.8	-13.3	103.0	2.4	-2.4
COc1ccc(N2C(=O)CC(Cc3ccccc3)C2=O)cc1 (stereo not drawn)	-4.8	-2.8	-21.3	102.0	-2.7	-23.0
O=C1C=CC2(C=C1)O[C@H](Cc1ccccc1)[C@@H](Cc1ccccc1)O2	2.4	98.5*	nt	99.0	-6.3	nt
COc1ccc(C[C@@H]2OC3(C=CC(=O)C=C3)O[C@H]2Cc2ccc(OC)cc2)cc1	-10.6	95.7*	nt	94.0	-9.5	nt
O=C1Nc2ccccc2C1Cc1ccccc1 (stereo not drawn)	0.2	-0.1	-5.1	97.0	-4.3	nt
Cc1ccc(S(=O)(=O)/N=C2/C=C(Sc3ncn[nH]3)C(=O)c3ccccc32)cc1	6.9	108.2*	-14.5	105.0	5.5	-34.8
CC(C)c1ccc(S(=O)(=O)/N=C2/C=C(Sc3ncn[nH]3)C(=O)c3ccccc32)cc1	3.3	98.5*	-3.0	102.0	-18.0	nt
C[C@@H]1CN([C@H](C)CO)C(=O)c2ccccc2-c2ccccc2CO[C@H]1CN(C)S(=O)(=O)c1ccccc1	nt	nt	nt	nt	nt	12.1
CNC[C@@H]1OCCCC[C@H](C)Oc2ccc(NC(=O)Nc3ccc(C(F)(F)F)cc3)cc2C(=O)N([C@@H](C)CO)C[C@@H]1C	nt	nt	nt	nt	nt	11.3
CO[C@H]1CN(C)C(=O)c2cc(NS(=O)(=O)c3ccccc3C)ccc2OC[C@H](C)N(C)C[C@@H]1C	nt	nt	nt	nt	nt	-8.7
CCOC(=O)c1ccc(NC(=O)COc2ccccc2CNCCc2ccccc2)cc1	-4.9	69.4*	10.1	105.0	-6.7	nt
N#Cc1c(C#N)c(SSc2c(C#N)c(C#N)c(N)n2-c2ccccc2)n(-c2ccccc2)c1N	6.5	96.2*	nt	98.0	-2.8	nt
N#Cc1c(N)n(-c2ccc(N)cc2)c2nc3ccccc3nc12	-10.9	4.1	-6.9	95.0	4.6	nt

4 of these compounds, set out differently:
C[C@@H]1CN([C@H](C)CO)C(=O)c2ccccc2-c2ccccc2CO[C@H]1CN(C)S(=O)(=O)c1ccccc1
  PKA-R1A activ: nt; Granule exo inh: nt; p-CIP stab down: nt; ABCB6 inh MLPCN: nt; PKA-R2B activ: nt; UUG fidelity: 12.1
N#Cc1c(C#N)c(SSc2c(C#N)c(C#N)c(N)n2-c2ccccc2)n(-c2ccccc2)c1N
  PKA-R1A activ: 6.5; Granule exo inh: 96.2*; p-CIP stab down: nt; ABCB6 inh MLPCN: 98.0; PKA-R2B activ: -2.8; UUG fidelity: nt
CO[C@H]1CN(C)C(=O)c2cc(NS(=O)(=O)c3ccccc3C)ccc2OC[C@H](C)N(C)C[C@@H]1C
  PKA-R1A activ: nt; Granule exo inh: nt; p-CIP stab down: nt; ABCB6 inh MLPCN: nt; PKA-R2B activ: nt; UUG fidelity: -8.7
CC(C)c1ccc(S(=O)(=O)/N=C2/C=C(Sc3ncn[nH]3)C(=O)c3ccccc32)cc1
  PKA-R1A activ: 3.3; Granule exo inh: 98.5*; p-CIP stab down: -3.0; ABCB6 inh MLPCN: 102.0; PKA-R2B activ: -18.0; UUG fidelity: nt
